Biological target: T1, ChuP (His-ChuP) (Chromobacterium violaceum, UniProt Q7NR89)
T1 construct: gene CV_3895
Experiment: biochemical

Protein sequences, listed by entry. Tags and fused reporters are not part of them.
UniProt Q7NR89, entry or part of it: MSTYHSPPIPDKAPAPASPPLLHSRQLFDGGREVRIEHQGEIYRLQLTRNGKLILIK

**Q.** With C=CC1=C(C)C2=Cc3c(C=C)c(C)c4[n]3[Fe]([Cl])[n]3c(c(C)c(CCC(=O)O)c3=CC3=NC(=C4)C(C)=C3CCC(=O)O)=CC1=N2 [Hm, hemin] as the compound, how does the Kd read?
**A.** 18.4 ± 4.66 µM

Source: article PMC9131926, “The Regulatory Protein ChuP Connects Heme and Siderophore-Mediated Iron Acquisition Systems Required for Chromobacterium violaceum Virulence” (Frontiers in Cellular and Infection Microbiology, 2022)
